Reference: US20120088247A1, “MATERIALS AND METHODS FOR TREATING PATIENTS WITH TAXOXIFEN” (Indian University Research & Technology Corporatio, priority 2009, published 2012)

Assay: Plasma concentrations of tamoxifen and its metabolites (HPLC) in women with breast cancer taking tamoxifen, by UGT2B7 genotype and CYP2D6 score
Description: Patients. […] Subjects for the registry were recruited from the Breast Oncology Program at the University of Michigan Comprehensive Cancer Center and the Indiana University Cancer Center. […] Patients were enrolled after they had completed all primary surgery, radiation, and adjuvant chemotherapy. Specimens and data from this registry has been sed for several other studies, as reported previously,[16],[6],[17].
Study design. […] At the indicated time points, medical histories, including a comprehensive list of current medications, were obtained, and blood samples (5 mL) were drawn. […]
UGT 2B7 genotyping. […] UGT2B7 codon 268 genotypes were determined by real-time PCR assays using the TaqMan Drug Metabolism Genotyping Assay C—32449742—20 (Applied Biosystems, Foster City, Calif.) in the ABI 7900HT sequence detection system equipped with an autoloader in the Functional Genomics Core Facility at the Penn State College of Medicine. […]
CYP2D6 Gene Score. […] CYP2D6 alleles associated with reduced enzyme activity (e.g. *9,*10, *17, *29, *37, *41, *45, *46) were scored as 0.5.
CYP2D6 Inhibition Factor and CYP2D6 Activity Score. […] The CYP2D6 Activity Score is expressed as the product of multiplying the CYP2D6 Gene Score by the Inhibitor factor, which is defined in the following equation: activity score=(gene score×inhibition factor), […]

4-hydroxytamoxifen [4-hydroxy-tamoxifen]
Association of plasma concentration with UGT2B7 genotype (FIG. 1, P<0.05 considered significant): not significantly associated | Mean plasma concentration, percent higher in *2/*2 group than *1/*1 group (UGT2B7 *2/*2 vs *1/*1 (FIG. 1B), not statistically significant): 22%
